Reference: PMC6751662, “Pharmacological and functional similarities of the human neuropeptide Y system in C. elegans challenges phylogenetic views on the FLP/NPR system” (Cell Communication and Signaling : CCS, 2019)

By UniProt entry, the sequences of proteins in these tests, tags left out. Where a name states a change or a piece, a line headed by the entry shows the natural chain unless it says otherwise. Residues count along the entry.
UniProt Q9Y5X5, 103-522: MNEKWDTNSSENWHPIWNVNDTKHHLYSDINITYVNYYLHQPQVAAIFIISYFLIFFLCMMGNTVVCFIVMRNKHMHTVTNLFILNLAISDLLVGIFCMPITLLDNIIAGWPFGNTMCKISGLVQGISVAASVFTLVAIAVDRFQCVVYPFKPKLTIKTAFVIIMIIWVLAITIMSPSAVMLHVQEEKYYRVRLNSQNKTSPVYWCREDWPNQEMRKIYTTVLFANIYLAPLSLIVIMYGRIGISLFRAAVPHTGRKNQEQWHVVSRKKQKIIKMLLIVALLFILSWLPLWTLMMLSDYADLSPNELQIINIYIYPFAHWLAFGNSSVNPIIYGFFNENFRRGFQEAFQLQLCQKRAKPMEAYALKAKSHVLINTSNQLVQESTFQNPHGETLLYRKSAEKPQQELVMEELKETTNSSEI
UniProt P50391: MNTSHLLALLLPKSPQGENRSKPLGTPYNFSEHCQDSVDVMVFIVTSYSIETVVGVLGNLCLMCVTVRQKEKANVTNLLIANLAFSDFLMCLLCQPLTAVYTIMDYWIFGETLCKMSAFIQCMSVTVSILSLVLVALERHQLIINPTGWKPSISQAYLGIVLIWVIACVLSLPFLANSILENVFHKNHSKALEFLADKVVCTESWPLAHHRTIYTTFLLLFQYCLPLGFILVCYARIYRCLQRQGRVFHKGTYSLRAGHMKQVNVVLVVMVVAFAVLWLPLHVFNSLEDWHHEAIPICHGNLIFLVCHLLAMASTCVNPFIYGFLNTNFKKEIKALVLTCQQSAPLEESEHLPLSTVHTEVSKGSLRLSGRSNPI

Assays:
Y5R = target: T1, Y5R (Homo sapiens, UniProt Q15761); assay: IP accumulation assay, chimeric GαΔ6qi4myr, Y5R; type: cell-based; details: chimeric GαΔ6qi4myr co-transfected, transiently transfected HEK293 cells, mean of at least three independent experiments
T1 construct: expressed in transfected cells; host or cells: HEK293, transient
T1 sequence (Q15761 1-445): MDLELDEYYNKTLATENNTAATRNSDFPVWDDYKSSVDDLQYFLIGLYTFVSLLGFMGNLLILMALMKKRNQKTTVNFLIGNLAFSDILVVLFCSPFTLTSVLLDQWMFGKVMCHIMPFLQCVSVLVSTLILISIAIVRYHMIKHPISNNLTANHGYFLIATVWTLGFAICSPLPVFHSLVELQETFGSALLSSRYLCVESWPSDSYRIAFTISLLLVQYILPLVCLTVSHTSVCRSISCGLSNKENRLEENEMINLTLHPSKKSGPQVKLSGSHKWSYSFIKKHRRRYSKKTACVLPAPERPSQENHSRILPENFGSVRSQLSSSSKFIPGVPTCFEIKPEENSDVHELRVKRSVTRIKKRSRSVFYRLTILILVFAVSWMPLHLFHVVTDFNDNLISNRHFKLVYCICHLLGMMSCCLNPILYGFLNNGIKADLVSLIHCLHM

NPR-3 = target: T2, NPR-3 (Caenorhabditis elegans, UniProt P90745); assay: cAMP reporter gene assay, Gi/o (inhibition of forskolin-induced cAMP), NPR-3; type: cell-based, C. elegans; details: 1 µM forskolin set to 1.00, transiently transfected HEK293 cells, mean of at least three independent experiments
T2 construct: expressed in transfected cells; host or cells: HEK293
T2 sequence (P90745 1-376): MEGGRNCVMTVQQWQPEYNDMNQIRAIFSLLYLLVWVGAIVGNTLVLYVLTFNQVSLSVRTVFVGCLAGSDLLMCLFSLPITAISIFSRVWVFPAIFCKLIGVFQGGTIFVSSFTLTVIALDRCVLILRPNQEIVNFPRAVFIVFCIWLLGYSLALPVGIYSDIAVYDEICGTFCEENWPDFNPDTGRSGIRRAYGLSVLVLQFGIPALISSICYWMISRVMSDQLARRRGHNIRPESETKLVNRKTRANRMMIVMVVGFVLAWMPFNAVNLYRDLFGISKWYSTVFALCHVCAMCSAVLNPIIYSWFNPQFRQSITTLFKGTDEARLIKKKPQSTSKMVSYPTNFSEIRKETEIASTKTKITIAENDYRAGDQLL

NPR-1 = target: T3, NPR-1 (Caenorhabditis elegans, UniProt Q18534); assay: cAMP reporter gene assay, Gi/o (inhibition of forskolin-induced cAMP), NPR-1; type: cell-based, C. elegans; set-up: host or cells: HEK293; details: inhibition of cAMP production induced by 1 µM forskolin (set to 1.00), lower = higher Gi/o activity, transiently transfected HEK293 cells, mean of at least three independent experiments
T3 sequence (Q18534 1-457): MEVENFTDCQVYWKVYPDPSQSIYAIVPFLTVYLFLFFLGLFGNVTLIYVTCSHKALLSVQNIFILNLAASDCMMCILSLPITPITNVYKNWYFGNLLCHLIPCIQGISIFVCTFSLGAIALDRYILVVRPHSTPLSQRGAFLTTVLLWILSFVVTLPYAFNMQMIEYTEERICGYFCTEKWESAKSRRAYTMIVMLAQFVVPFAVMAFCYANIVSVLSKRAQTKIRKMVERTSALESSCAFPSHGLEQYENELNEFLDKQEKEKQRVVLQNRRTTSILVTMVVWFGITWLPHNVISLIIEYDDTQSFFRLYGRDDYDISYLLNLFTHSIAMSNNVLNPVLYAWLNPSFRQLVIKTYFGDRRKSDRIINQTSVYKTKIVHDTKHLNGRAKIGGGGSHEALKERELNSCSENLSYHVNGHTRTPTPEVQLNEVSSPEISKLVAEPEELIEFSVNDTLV

PrRPR = target: T4, PrRPR (Homo sapiens, UniProt P49683); assay: IP accumulation assay, endogenous Gαq coupling, PrRPR; type: cell-based; details: transiently transfected HEK293 cells, mean of at least three independent experiments
T4 construct: expressed in transfected cells; host or cells: HEK293, transient
T4 sequence (P49683 1-370): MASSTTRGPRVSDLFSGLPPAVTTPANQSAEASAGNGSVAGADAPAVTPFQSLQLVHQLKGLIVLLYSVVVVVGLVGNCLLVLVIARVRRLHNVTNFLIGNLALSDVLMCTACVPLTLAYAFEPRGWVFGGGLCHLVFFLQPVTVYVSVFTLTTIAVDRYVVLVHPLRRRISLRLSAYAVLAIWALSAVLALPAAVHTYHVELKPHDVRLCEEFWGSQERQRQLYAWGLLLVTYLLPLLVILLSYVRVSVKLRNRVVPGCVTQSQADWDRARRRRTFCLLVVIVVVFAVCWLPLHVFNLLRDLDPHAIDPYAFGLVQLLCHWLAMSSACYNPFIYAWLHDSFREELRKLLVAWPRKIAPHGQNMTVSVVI

NPFF2R = target: T5, NPFF2R (Homo sapiens, UniProt Q9Y5X5); assay: IP accumulation assay, chimeric GαΔ6qi4myr, NPFF2R; type: cell-based; details: chimeric GαΔ6qi4myr co-transfected, transiently transfected HEK293 cells, mean of at least three independent experiments
T5 construct: expressed in transfected cells; host or cells: HEK293, transient

Y4R = target: T6, Y4R (Homo sapiens, UniProt P50391); assay: IP accumulation assay, chimeric GαΔ6qi4myr, Y4R; type: cell-based; details: chimeric GαΔ6qi4myr co-transfected, transiently transfected HEK293 cells, mean of at least three independent experiments
T6 construct: expressed in transfected cells; host or cells: HEK293, transient

NPR-6 = assay: cAMP reporter gene assay, Gi/o (inhibition of forskolin-induced cAMP), NPR-6; type: cell-based, C. elegans; details: 1 µM forskolin set to 1.00, transiently transfected HEK293 cells, mean of at least three independent experiments

Q: For “FLFQPQRF-NH2 [NPFF, human neuropeptide FF, reference compound]”, which “IP accumulation, x-fold of basal (mean), Y5R” value (Y5R; 0.1 µM peptide) is on record?
A: 0.59 x-fold of basal

Q: What about the “IP accumulation, x-fold of basal (mean), Y5R” value (Y5R; 10 µM peptide) of the same substance?
A: 1.11 x-fold of basal

Q: What about the “cAMP, x-fold of forskolin (mean), NPR-3” value (NPR-3; 0.1 µM peptide) of the same substance?
A: 0.98 x-fold of forskolin

Q: And the “cAMP, x-fold of forskolin (mean), NPR-3” value (NPR-3; 10 µM peptide)?
A: 1.00 x-fold of forskolin

Q: And the “cAMP, x-fold of forskolin (mean), NPR-1” value (NPR-1; 0.1 µM peptide)?
A: 1.27 x-fold of forskolin

Q: What about the “cAMP, x-fold of forskolin (mean), NPR-1” value (NPR-1; 10 µM peptide) of the same substance?
A: 0.80 x-fold of forskolin

Q: What about the “IP accumulation, x-fold of basal (mean), PrRPR#” value (PrRPR; 0.1 µM peptide) of the same substance?
A: 0.89 x-fold of basal

Q: And the “IP accumulation, x-fold of basal (mean), PrRPR#” value (PrRPR; 10 µM peptide)?
A: 1.28 x-fold of basal

Q: What about the “IP accumulation, x-fold of basal (mean), NPFF2R” value (NPFF2R; 0.1 µM peptide) of the same substance?
A: 2.33 x-fold of basal

Q: What about the “IP accumulation, x-fold of basal (mean), NPFF2R” value (NPFF2R; 10 µM peptide) of the same substance?
A: 2.28 x-fold of basal

Q: What about the “IP accumulation, x-fold of basal (mean), Y4R” value (Y4R; 0.1 µM peptide) of the same substance?
A: 0.89 x-fold of basal

Q: And the “IP accumulation, x-fold of basal (mean), Y4R” value (Y4R; 10 µM peptide)?
A: 0.99 x-fold of basal

Q: What about the “cAMP, x-fold of forskolin (mean), NPR-6” value (NPR-6; 0.1 µM peptide) of the same substance?
A: 1.08 x-fold of forskolin

Q: And the “cAMP, x-fold of forskolin (mean), NPR-6” value (NPR-6; 10 µM peptide)?
A: 0.43 x-fold of forskolin
